The text below walks through data of ChEMBL document CHEMBL1144842, “Design and campaign synthesis of piperidine- and thiazole-based histone deacetylase inhibitors” (Bioorg Med Chem Lett, 2008).

The target in one experiment is Histone deacetylase. The experiment is described as follows: Inhibition of human HDAC in HeLa cells. Format: cell-based.
For the next experiment, the target named is Histone deacetylase 1 (Homo sapiens, UniProt Q13547). Description: Inhibition of human recombinant HDAC1 expressed in Hi5 cells. On the set-up: species or system BTI-TN-5B1-4.

For orientation: IC50 means the concentration that gives 50% inhibition.

Consider `Nc1ccccc1NC(=O)c1ccccn1`, for which the “Log IC50” value at Histone deacetylase is -4.29. Also, on Histone deacetylase 1, the half-inhibitory concentration (IC50) is 2450 nM.
